How the values were obtained:
[1] = tested on: human non-small cell lung cancer cells A549; assay: CellTiter-Glo cell viability, 72 hours; format: cell-based; conditions: A549, 1000 nM, duplicate wells
From the text: (§1) A first exemplary embodiment is shown a detection of the angstrom silver on a proliferation influence of human non-small cell lung cancer cells A549 and human hepatocellular carcinoma cells HepG2.
(§2) Reagents and consumables shown below: 1. HepG2, provided by HD Biosciences (Shanghai) Co., Ltd., and passed a mycoplasma detection; 2, F 12K culture medium, American Gibco, Art. No.: 21127-022; 3. EMEM culture medium, American ATCC, Art. No.: 30-2003; 4. Fetal bovine serum (FBS), American Hyclone, Art. No.: CH30160.03; 5. Penicillin-streptomycin liquid, American Invitrogen, Art. No.: CH15140-122; 6. […] Plate reader, American Perkin Elmer, EnVision Multilabel Plate Reader. […]
(§3) 3. […] At this time, the gradient concentration of a compound to be measured includes 150 ppm, 15 ppm, 1.5 ppm, 0.15 ppm and 0.015 ppm, which is a 2-by-compound solution to be used to treat cells.
(§4) 4. […] At this time, the gradient concentration of the compound to be measured includes 2 μM, 200 nM, 20 nM, 2 nM and 0.2 nM, which is a 2-by-compound solution to be used to treat cells. […]
(§5) 5. Placing the 96-well cell culture plate in a plate reader to analyze it, and setting it to read chemical luminescence and record data.
(§6) Readout in each hole needs to be converted to a cell viability. The cell viability can be calculated by the following formula: […]

[2] = tested on: human hepatocellular carcinoma cells HepG2; assay: CellTiter-Glo cell viability, 72 hours; format: cell-based; conditions: HepG2, 10 nM, duplicate wells
From the text: as §1, §2, §3, §4, §5, §6

In the case of `CN[C@@H]1C[C@H]2O[C@@](C)([C@@H]1OC)n1c3ccccc3c3c4c(c5c6ccccc6n2c5c31)C(=O)NC4` [STSP], the “Percentage of cell growth” value [1] is reported as 11.3% and the “Percentage of cell growth” value [2] is reported as 81.7%.

Source: patent US20200038438A1, “ANGSTROM SILVER INJECTION FOR CANCER INHIBITION, PREPARATION METHOD AND APPLICATION THEREOF” (Shenzhen AMCAN Medical Biotechnology Limited, priority 2018, published 2020)
